The list is not random: actives were taken first. Their share in the collection is about 0.66%.
gsp ag – agonists of gsp mutant (McCune-Albright syndrome); gsp mutant cells, cAMP HTRF, 30 min; Potency, µM (top dose mostly 76.9 µM), for the others: top-dose activation (cAMP increase), hits mostly activators; hit rate 0.13% among 340,000; active means well fitted activation curve with a large enough effect; inconclusive means small, poorly fitted or top-dose-only effect, or another doubt; inactive means no such curve, though single readings can be large or run the other way; cell line not stated here;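 further: phosphodiesterase inhibitor Ro 20-1724 added with compounds to block cAMP breakdown; nearly all actives have a fitted effect of over 60% in size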
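Cells stably selected in G418 were plated at 2000/well, grown 16-24 hr, then given compounds in DMSO with the PDE inhibitor […] (300 uM solution added) for 30 min at 37C; cAMP was read by HTRF.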
gsp antag – gsp mutant antagonism | Potency, µM (highest dose often 76.9 µM), for inactives: top-dose activity change, negative = inhibition, most hits filed as inhibitors | hit rate 0.4% among 340,000 | gsp-mutant cells, cAMP HTRF, 30 min | AID 624288; calls by dose curve; cell line not stated here;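 further: intracellular cAMP measured with PDE inhibitor Ro 20-1724 present during compound exposure; on the % scale 0 is the no-effect control and ±100 the full control effect; nearly all actives have a fitted effect of over 65% in size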
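Measurement of cellular cAMP by homogeneous time-resolved fluorescence following a 30 min compound exposure at 37C. The PDE inhibitor […] was present throughout; the assay buffer was DPBS with 0.05% BSA and 0.005% Tween 20.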
Rango dissoc inh – inhibitors of RanGTP-induced Rango-importin beta complex dissociation; Potency, µM (top dose mostly 46.1 µM), inactives show top-dose activity change, negative = inhibition; Biochemical FRET Rango-importin beta, RanGTP-induced dissociation; O95149+P62826; hit rate 0.071% among 340,000; further: % of control where 0% means no effect; nearly all actives have a fitted effect of over 45% in size
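Rango (0.1 uM)–importin beta (0.25 uM) complex; RanGTP-RCC1 trigger; 45 min RT; CFP/YFP FRET read.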
Rango-impB inh – prevents formation of the Rango-importin beta complex | Q14974 | Rango CFP/YFP FRET sensor + importin beta, 45 min | Potency, µM (titrated, usually from 92.2 µM), inactives show at the top dose inhibition of complex formation | hit rate 0.031% among 340,000;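 further: 0% = DMSO wells and 100% = buffer wells lacking importin beta; nearly all actives have a fitted effect of over 15% in size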
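FRET biosensor Rango (snurportin 1 IBB between N-terminal EYFP and C-terminal Cerulean), 50 nM in PBS/1 mM DTT/0.02% Tween-20/0.1% BSA, preincubated 5 min RT with compound; 0.125 microM importin beta added, 45 min RT, CFP/YFP FRET ratio read.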
* = called active by the depositor; ? = inconclusive; · = not tested or not shown; [ ] = dose if it differs, or a comment. Unless noted, the call rests on the fitted dose curve. Potency means the concentration at half of the fitted maximal effect.

Codes: A = gsp ag; B = gsp antag; C = Rango dissoc inh; D = Rango-impB inh
Cc1ccc(NC(=O)c2ccc3c(c2)C(=O)N(CC2CCCO2)C3=O)cc1C (stereo not drawn)
  A: -17%; B: -25%; C: 9%; D: -1%
C[C@H](O)[C@@H]1CN2CCc3c([nH]c4ccccc34)[C@@H]2C[C@@H]1N(C)Cc1cc(Cl)cc(Cl)c1
  A: -57%; B: ·; C: ·; D: ·
Cc1ccc(S(=O)(=O)N2CCN(C(=O)C3CCN(c4ncnc5sc(C)c(C)c45)CC3)CC2)c(C)c1
  A: 2%; B: ?; C: 11%; D: 3%
Cc1ccccc1Nc1n[nH]c(=S)s1
  A: -16%; B: ·; C: ·; D: ·
Nc1ccccc1-c1n[nH]c(=S)s1
  A: ?; B: -17%; C: 15µM*; D: ?
O=C(Nc1ccc(C(=O)Oc2ccccc2)c(O)c1)c1ccco1
  A: 8%; B: 35µM*; C: 6%; D: -7%
O=S(=O)(c1cccc(NC(=S)N2CCN(c3cccc(Cl)c3)CC2)c1)C(F)F
  A: -3%[15.4 µM]; B: 32µM*; C: 13%; D: -1%
O=S(=O)(c1cccc(NC(=S)N2CCN(c3ccc(F)cc3)CC2)c1)C(F)F
  A: -13%; B: ?; C: 8%; D: 1%
Cc1cn(CC(=O)NCC(c2ccccc2)c2ccccc2)c(=O)[nH]c1=O
  A: ·; B: -5%; C: ?; D: 0%
Cc1ccc([C@@H]2C[C@H]3[C@@H](CN2S(=O)(=O)c2ccc(C)cc2)C(=O)C[C@@H](c2ccc(C)cc2)N3S(=O)(=O)c2ccc(Cl)cc2)cc1
  A: 19%; B: ·; C: ·; D: ·
Cc1noc(C)c1C(=O)N(C)C[C@@H]1OCc2ccccc2-c2c(n(C)c3ccccc23)C(=O)N([C@H](C)CO)C[C@H]1C
  A: -1%; B: ·; C: ·; D: ·
N#CC(C#N)=NNc1ccc(S(=O)(=O)N2CCCCC2)cc1
  A: 6%; B: 25µM*; C: 1%; D: 7%
N#C/C(=N\Nc1ccc(S(=O)(=O)N2CCOCC2)cc1)C(N)=S
  A: 5%[15.4 µM]; B: -21%; C: -7%; D: -1%
O=C(NCc1ccc(F)cc1)c1cccc(S(=O)(=O)N2CCOCC2)c1
  A: 11%; B: 9%; C: -2%; D: 65µM*
Cc1cc(NC(=O)CSc2nc(C(C)(C)C)nc3ccccc23)no1
  A: 25µM*; B: 22%; C: ?; D: -4%
Cc1cc(NC(=O)CSc2nc3ccccc3n2CCC#N)no1
  A: -6%[15.4 µM]; B: 10µM*; C: 10%; D: 0%
Cc1nonc1NC(=O)CSc1nc(CCC2CCCC2)nc2ccccc12
  A: 20µM*; B: -11%; C: 10%; D: -1%
CCCc1nc(SCC(=O)Nc2cc(C)on2)c2ccccc2n1
  A: 27%; B: 1%; C: 0%; D: 1%
C[C@H](CO)N1C[C@H](C)[C@H](CN(C)C(=O)OCc2ccccc2)OCc2cnnn2CCCC1=O
  A: -14%; B: ·; C: ·; D: ·
CCc1c(-c2ccccc2)nc2sc3c(c2c1N)CCCC3
  A: 6%[15.4 µM]; B: 35µM*; C: 0%; D: 1%
CCC(C(=O)NCCc1ccc(C)cc1)n1nc(C)c2c(C)n(-c3ccccc3)nc2c1=O (stereo not drawn)
  A: ?; B: 50µM*; C: 15%; D: -2%
Cn1nc(CC(=O)NCc2ccc(C(F)(F)F)cc2)c2ccccc2c1=O
  A: -17%; B: 13µM*; C: 3%; D: -4%
CC(=O)Nc1ccc(S(=O)(=O)N2CCC(C(=O)N[C@@H](C)C(=O)NC3CCCC3)CC2)cc1
  A: -38%; B: 50µM*; C: 20%; D: 0%
CC(=O)c1ccccc1OCC(O)CN1CCN(CCN2C(=O)c3cccc4cccc(c34)C2=O)CC1 (stereo not drawn)
  A: -16%[15.4 µM]; B: 32µM*; C: ?; D: -1%
Cc1cn([C@H]2C[C@H](O)[C@@H](CNC(=O)[C@H](N)Cc3cn(COCc4ccccc4)cn3)O2)c(=O)[nH]c1=O
  A: 2%; B: ·; C: ·; D: ·

The final 2 entries of the part before are carried over, then new ones follow.
Codes: A = gsp ag; B = gsp antag; C = Rango dissoc inh; D = Rango-impB inh
CC(=O)c1ccccc1OCC(O)CN1CCN(CCN2C(=O)c3cccc4cccc(c34)C2=O)CC1 (stereo not drawn)
  A: -16%[15.4 µM]; B: 32µM*; C: ?; D: -1%
Cc1cn([C@H]2C[C@H](O)[C@@H](CNC(=O)[C@H](N)Cc3cn(COCc4ccccc4)cn3)O2)c(=O)[nH]c1=O
  A: 2%; B: ·; C: ·; D: ·
O=C1C2CC=CCC2C(=O)N1c1ccc(NCCc2ccc(O)cc2)c([N+](=O)[O-])c1 (stereo not drawn)
  A: 10%[15.4 µM]; B: 32µM*; C: 1%; D: 4%
CC1NC(=O)c2cc3ccccc3cc2-n2c1nc1ccccc1c2=O (stereo not drawn)
  A: 37%; B: ·; C: ·; D: ·
O=C1C=C(Nc2ccc(Cl)cc2)CC(c2ccco2)C1 (stereo not drawn)
  A: 0%; B: ?; C: -2%; D: -1%
O=C1C=C(Nc2cccc(O)c2)CC(c2ccco2)C1 (stereo not drawn)
  A: 14%; B: 9%; C: 12µM*; D: ?
COc1ccc(CN2C(=O)C(CC(=O)NCC3CCCCC3)CC(C(=O)N(C(C)C)C(C)C)=C2C)cc1 (stereo not drawn)
  A: 15%; B: ·; C: ·; D: ·
Cc1n[nH]c(C)c1S(=O)(=O)N1CCCC(C(=O)N2CCN(c3ccc(Cl)cc3)CC2)C1 (stereo not drawn)
  A: -45%; B: 35µM*; C: -12%; D: 4%
O=C1c2ccccc2C(=O)c2c(/C=C/N3CCCCC3)ccnc21
  A: 8.9µM*; B: -5%; C: -8%; D: -3%
CCOc1ccc(S(=O)(=O)c2ccc(C)cc2)c2c1no[n+]2[O-]
  A: -58%; B: ·; C: ·; D: ·
Cc1noc(C)c1CSCC(=O)Nc1cc(S(=O)(=O)N2CCOCC2)ccc1OCC(F)(F)F
  A: ?; B: 4%; C: 0%; D: 0%
CCOc1ccc(S(=O)(=O)N(CC)CC)cc1NC(=O)CSCc1c(C)noc1C
  A: 10µM*; B: 1%; C: 10%; D: 5%
C[C@H](CO)N1C[C@H](C)[C@@H](CN(C)Cc2ccc3cccnc3c2)OCc2cnnn2CCCC1=O
  A: -1%; B: ·; C: ·; D: ·
O=S(=O)(NCCS(=O)(=O)N1CCN(c2ccc(F)cc2)CC1)c1ccc(F)cc1
  A: -30%; B: ·; C: ·; D: ·
O=C1CC(SC(=S)C2CCCC2=O)C(=O)N1 (stereo not drawn)
  A: -3%; B: ·; C: ·; D: ·
CCc1ccc(NC(=O)Nc2ccc3c(c2)N(C)C(=O)CS3)cc1
  A: 17%; B: 35µM*; C: -3%; D: 0%
COc1ccc(C2c3cc(OC)c(OC)cc3CC3C(=O)OCC32)cc1OC (stereo not drawn)
  A: ?; B: 2%; C: 2%; D: -1%
NC(=O)CC(NC(=O)Cc1cccc2ccccc12)c1ccc(N2CCCCCCC2)c([N+](=O)[O-])c1 (stereo not drawn)
  A: -5%; B: 50µM*; C: -7%; D: 0%
NC(=O)CC(NC(=O)Cc1cccc2ccccc12)c1ccc(N2CCN(c3ccc(F)cc3)CC2)c([N+](=O)[O-])c1 (stereo not drawn)
  A: 7%; B: -4%; C: -10%; D: 1%
C[C@H]1CN([C@@H](C)CO)C(=O)c2cc(Br)cnc2O[C@H]1CN(C)C(=O)c1cccnc1
  A: 32µM*; B: ·; C: ·; D: ·
C[C@@H]1CN([C@H](C)CO)C(=O)c2cc(Br)cnc2O[C@H]1CN(C)C(=O)c1ccccc1
  A: -22%; B: ·; C: ·; D: ·
CCC(=O)Oc1ccc(C/C(=N\O)c2ccc(O)cc2O)o1
  A: -20%; B: 5.6µM*; C: -2%; D: -1%
CCN(CC(=O)Nc1c(F)cccc1F)C(=O)CCCN1C(=O)c2cccc3cccc(c23)C1=O
  A: 13µM*; B: ·; C: ·; D: ·
CCN(CC(=O)Nc1ccc(NC(C)=O)cc1)C(=O)CCCN1C(=O)c2ccccc2C1=O
  A: 16%[15.4 µM]; B: 16%; C: -2%; D: ?
O=C(NC1CCN(Cc2ccccc2)C1)c1cccc(S(=O)(=O)N2CCOCC2)c1 (stereo not drawn)
  A: 22%; B: 9%; C: -4%; D: 3%
O=C(NC1CCN(Cc2ccccc2)CC1)c1cc(S(=O)(=O)N2CCOCC2)ccc1Cl
  A: 21%; B: 50µM*; C: -6%; D: 2%

4 compounds from above, ordered by their value in gsp ag, high to low:
| mol | gsp ag |
| --- | --- |
| C[C@H]1CN([C@@H](C)CO)C(=O)c2cc(Br)cnc2O[C@H]1CN(C)C(=O)c1cccnc1 | 32µM* |
| CCN(CC(=O)Nc1c(F)cccc1F)C(=O)CCCN1C(=O)c2cccc3cccc(c23)C1=O | 13µM* |
| CCOc1ccc(S(=O)(=O)N(CC)CC)cc1NC(=O)CSCc1c(C)noc1C | 10µM* |
| O=C1c2ccccc2C(=O)c2c(/C=C/N3CCCCC3)ccnc21 | 8.9µM* |

Screening data: PubChem BioAssay, National Center for Advancing Translational Sciences (NCATS)
